# Patent publication US8703722B2, “Inhibitors of F18+ E coli binding” (priority 2008, dated 2014)
# Tested on: F18-positive E. coli strain 107/86
# Experiment: Carbohydrate inhibition in the in vitro villous adhesion assay (bacteria pre-incubated with saccharide)
# Type: cell-based, Escherichia coli
# Conditions: Example 19, villi of one pig
# Text: The nature of the F18R on porcine small intestinal villous enterocytes was investigated using an in vitro villous adhesion inhibition assay (Cox, E., Houvenaghel, A., 1993. Vet. Microbiol. 34(1), 7-18; Verdonck, F., Cox, E., van Gog, K., Van der Stede, Y., Duchateau, L., Deprez, P., Goddeeris, B. M., 2002. Vaccine 20(23-24), 2995-3004). Briefly, a 20 cm intestinal segment was collected from the mid jejunum of a euthanized pig, rinsed three times with ice cold PBS, and fixed with Krebs-Henseleit buffer (160 mM, pH 7.4) containing 1% (v/v) formaldehyde for 30 min at 4° C. Thereafter, the villi were gently scraped from the mucosae with a glass slide and stored in Krebs-Henseleit buffer at 4° C. Treatment of villi with acetone, methanol, 1% Triton® X-100, 10 mM NaIO4 in 0.2M sodium acetate, pH 4.5, or 0.2M sodium acetate, pH 4.5, without NaIO4, respectively, was performed at room temperature on a rotating wheel in a volume of 500 μl during 1 h. Next, the villi were washed 6 times with Krebs-Henseleit buffer followed by addition of 4×10^8 bacteria of the F18 positive reference E. coli strain (107/86), or the F4ac-expressing E. coli strain GIS 26, to an average of 50 villi in a total volume of 500 μl PBS, supplemented with 1% (w/v) D-mannose in order to prevent adhesion mediated by type 1 pili. These mixtures were incubated at room temperature for 1 h while being gently shaken. Villi were examined by phase-contrast microscopy at a magnification of 600, and the number of bacteria adhering along 50 μm brush border was quantitatively evaluated by counting the number of adhering bacteria at 20 randomly selected places, after which the mean bacterial adhesion was calculated.
# The F18-positive E. coli strain 107/86 (8×10^7 bacteria) was incubated with different concentrations (10 mg/ml, 1 mg/ml, […]) of blood group H type 1 pentasaccharide (Fucα2Galβ3GlcNAcβ3Galβ4Glc) or lacto-N-tetraose saccharide (Galβ3GlcNAcβ3Galβ4Glc) (Glycoseparations, Moscow, Russia) in a final volume of 100 μl PBS, for 1 h at room temperature, while being gently shaken. The mixtures were then added to the villi, and again incubated for 1 h at room temperature with gentle shaking. Thereafter, the villi were examined by phase-contrast microscopy at a magnification of 600, and the number of bacteria adhering along a […] brush border was quantitatively evaluated by counting the number of adhering bacteria at 20 randomly selected places, after which the mean bacterial adhesion was calculated. Villi of two different F18R-positive pigs were used, and the countings were performed in triplicate.
# The F18-positive E. coli strain 107/86 (8×10^7 bacteria) was incubated with 1 mg of blood group H type 1 pentasaccharide (H5-1, Fucα2Galβ3GlcNAcβ3Galβ4Glc), blood group A type 1 hexasaccharide (A6-1, GalNAcα3(Fucα2)Galβ3GlcNAcβ3Galβ4Glc), blood group B type 1 hexasaccharide (B6-1, Galα3(Fucα2)Galβ3GlcNAcβ3Galβ4Glc) or lacto-N-tetraose saccharide (LNT, Galβ3GlcNAcβ3Galβ4Glc) (Elicityl, Grenoble, France) in a final volume of 100 μl PBS, for 1 h at room temperature, while being gently shaken. The mixtures were then added to the villi, and again incubated for 1 h at room temperature with gentle shaking. Thereafter, the villi were examined by phase-contrast microscopy, and adhering bacteria were quantified as described above. Villi of two different F18R-positive pigs were used, and the countings were performed in triplicate.
Substance,Inhibition of F18+ E. coli adherence to porcine intestinal villi (0.2 μg (protein) in 100 μl PBS),Inhibition of F18+ E. coli adherence to porcine intestinal villi (2 μg (protein) in 100 μl PBS),Reduction of F18+ E. coli adherence to porcine intestinal villi (10 μg (protein) in 100 μl PBS),Reduction of F18+ E. coli adherence to porcine intestinal villi (20 μg (protein) in 100 μl PBS)
A6-1/HSA: blood group A type 1 hexasaccharide (GalNAcα3(Fucα2)Galβ3GlcNAcβ3Galβ4Glc) conjugated to HSA; 9 mole oligosaccharide/mole protein,11.3%,30.6%,67.1%,69.1%
HSA: unconjugated HSA carrier protein used as control [reference compound],–,–,–,No inhibition
